Laboratory results published in PubChem BioAssay (NCI).
Some tests of the compounds listed are not included; inactive here does not mean inactive elsewhere.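 Following 48 hours of exposure in 96-well plates, responses at five concentrations were used to interpolate endpoints linearly. The concentration for full growth arrest is given as TGI.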

Key:
Assay in all cases: NCI tumour cell line growth inhibition, 48 h
NCI-H226 lung = system: NCI-H226 lung
HOP-62 NSCLC = system: HOP-62 NSCLC
MDA-MB-231 breast = system: MDA-MB-231 breast
OVCAR-3 ovarian = system: OVCAR-3 ovarian
A549 NSCLC = system: A549 NSCLC
SK-MEL-28 melanoma = system: SK-MEL-28 melanoma
TK-10 renal = system: TK-10 renal
MCF7 breast = system: MCF7 breast
KM12 colon = system: KM12 colon
RXF 393 renal = system: RXF 393 renal
786-0 renal = system: 786-0 renal
PC-3 prostate = system: PC-3 prostate
OVCAR-8 ovarian = system: OVCAR-8 ovarian
CCRF-CEM leukemia = system: CCRF-CEM leukemia
RPMI-8226 leukemia = system: RPMI-8226 leukemia
HL-60(TB) leukemia = system: HL-60(TB) leukemia
MOLT-4 leukemia = system: MOLT-4 leukemia
NCI-H23 lung = system: NCI-H23 lung
SNB-75 CNS = system: SNB-75 CNS
MALME-3M melanoma = system: MALME-3M melanoma
SK-MEL-5 melanoma = system: SK-MEL-5 melanoma
SF-268 CNS = system: SF-268 CNS
M14 melanoma = system: M14 melanoma
K-562 leukemia = system: K-562 leukemia
HCC-2998 colon = system: HCC-2998 colon
COLO 205 colon = system: COLO 205 colon
NCI/ADR-RES ovarian = system: NCI/ADR-RES ovarian
SW-620 colon = system: SW-620 colon
SNB-19 CNS = system: SNB-19 CNS
UO-31 renal = system: UO-31 renal
IGROV1 ovarian = system: IGROV1 ovarian
HCT-116 colon = system: HCT-116 colon
U251 CNS = system: U251 CNS
LOX IMVI melanoma = system: LOX IMVI melanoma
T-47D breast = system: T-47D breast
SF-539 CNS = system: SF-539 CNS
ACHN renal = system: ACHN renal
DU-145 prostate = system: DU-145 prostate
SR leukemia = system: SR leukemia
SF-295 CNS = system: SF-295 CNS
UACC-62 melanoma = system: UACC-62 melanoma
CAKI-1 renal = system: CAKI-1 renal
MDA-N = system: MDA-N
HT29 colon = system: HT29 colon
SK-OV-3 ovarian = system: SK-OV-3 ovarian
OVCAR-5 ovarian = system: OVCAR-5 ovarian
SN12C renal = system: SN12C renal
HCT-15 colon = system: HCT-15 colon
NCI-H522 lung = system: NCI-H522 lung
EKVX NSCLC = system: EKVX NSCLC
UACC-257 melanoma = system: UACC-257 melanoma

Measured: TGI

CC(C)C(O)(C(=O)OCC1=CC2CCN1CC2)c1ccccc1 (stereo unspecified)
> 100 µM: all assays above
